Only a part is listed here, and it is no random draw. The source made the active and inactive calls.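 The calls were made as follows: active = fluorescence ratio to DMSO below 75%, the collection mean minus 3 SD; inconclusive = too few cells collected in the well; inactive = the rest.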
molecular target: ATP-binding cassette sub-family B member 6 (Homo sapiens) (UniProt Q9NP58); experiment: ABCB6 transporter inhibitors, primary screen, K562-ABCB6 cells, flow cytometry, MLPCN library (AID 602162); settings: K562-ABCB6 porphyrin accumulation, 1 h, at 10 µM, active compounds read low;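 also: signal is porphyrin accumulated inside mitochondria; 100% equals median channel fluorescence of DMSO control wells; lower ratio means ABCB6 inhibition with less porphyrin fluorescence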

Protein sequences, listed by entry. Tags and fused reporters are not part of them.
UniProt Q9NP58, whole entry: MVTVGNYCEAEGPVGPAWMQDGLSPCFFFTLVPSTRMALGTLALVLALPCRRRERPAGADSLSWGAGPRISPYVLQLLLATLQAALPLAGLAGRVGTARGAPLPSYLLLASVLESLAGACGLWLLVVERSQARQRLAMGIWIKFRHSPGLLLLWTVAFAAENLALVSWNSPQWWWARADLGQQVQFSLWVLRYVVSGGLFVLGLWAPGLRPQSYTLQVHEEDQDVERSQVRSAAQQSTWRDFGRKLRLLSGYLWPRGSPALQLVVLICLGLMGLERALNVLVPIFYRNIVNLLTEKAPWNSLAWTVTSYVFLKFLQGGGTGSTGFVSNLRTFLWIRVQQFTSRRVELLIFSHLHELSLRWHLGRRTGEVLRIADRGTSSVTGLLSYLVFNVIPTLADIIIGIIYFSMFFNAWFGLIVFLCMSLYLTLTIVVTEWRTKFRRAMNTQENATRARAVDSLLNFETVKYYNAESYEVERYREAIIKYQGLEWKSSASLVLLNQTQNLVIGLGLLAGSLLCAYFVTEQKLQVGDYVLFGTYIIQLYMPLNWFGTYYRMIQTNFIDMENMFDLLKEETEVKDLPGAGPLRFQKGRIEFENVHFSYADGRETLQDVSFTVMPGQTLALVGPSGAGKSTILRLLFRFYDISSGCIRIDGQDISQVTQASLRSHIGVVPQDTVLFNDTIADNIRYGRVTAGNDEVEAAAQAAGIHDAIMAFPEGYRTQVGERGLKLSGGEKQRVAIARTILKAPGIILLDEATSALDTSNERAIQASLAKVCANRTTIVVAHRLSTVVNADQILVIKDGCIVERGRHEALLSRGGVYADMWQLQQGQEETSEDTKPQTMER

Row | SMILES | fluorescence ratio to DMSO
1 | O=C(NCC1(N2CCCCC2)CCCCC1)c1cccs1 | inactive: 101%
2 | CCCCn1nnnc1C(CC)N1CCC(n2c(=O)[nH]c3ccccc32)CC1 (stereo unspecified) | inactive: 105%
3 | COc1ccc(C(=O)NCC2(N3CCCCC3)CCCCC2)cc1 | inactive: 104%
4 | CCC(c1nnnn1C1CCCC1)N1CCC(n2c(=O)[nH]c3ccccc32)CC1 (stereo unspecified) | inactive: 103%
5 | CC(C)(C)OC(=O)N1CCC(N(C(=O)c2ccccc2)c2ccc(F)cc2)CC1 | inactive: 95%
6 | COc1ccc(C(=O)NCC2(N3CCCCC3)CCCCC2)c(OC)c1OC | inactive: 94%
7 | O=c1[nH]c2ccccc2n1C1CCN(C(c2cccc3ccccc23)c2nnnn2C2CCCC2)CC1 (stereo unspecified) | inactive: 97%
8 | COc1cc(C(=O)NCC2(N(C)C)CCCCC2)ccc1OC(F)F | inactive: 99%
9 | CCOC(=O)N1CCC(Nc2cccc(C)c2)CC1 | inactive: 97%
10 | O=c1[nH]c2ccccc2n1C1CCN(C(c2ccccc2)c2nnnn2C2CCCCC2)CC1 (stereo unspecified) | inactive: 98%
11 | O=C(NCC1(N2CCCCC2)CCCCC1)c1ccc(F)cc1 | inactive: 97%
12 | CCCCn1nnnc1C(c1cc2ccccc2o1)N1CCC(n2c(=O)[nH]c3ccccc32)CC1 (stereo unspecified) | inactive: 97%
13 | O=P1(N(CCCl)CCCl)SCCCS1 | inactive: 92%
14 | CCCCOc1ccc(C(=O)NCC2(N3CCOCC3)CCCCC2)cc1 | inactive: 96%
15 | COc1ccc(NC2CCN(CCc3ccccc3)CC2)c(OC)c1 | inactive: 95%
16 | CCOC(=O)N1CCC(Nc2ccc(F)cc2)CC1 | inactive: 98%
17 | CCOc1ccc(C)cc1CN(CCCl)CCCl | inactive: 94%
18 | CC(C)(C)n1nnnc1C(c1ccccc1)N1CCC(n2c(=O)[nH]c3ccccc32)CC1 (stereo unspecified) | inactive: 102%
19 | O=C1CCN(Cc2ccccc2)CC1 | inactive: 103%
20 | CCCCn1nnnc1C(c1cccc2ccccc12)N1CCC(n2c(=O)[nH]c3ccccc32)CC1 (stereo unspecified) | inactive: 92%
21 | CN1CCN(CCOC(=O)C(O)(c2ccccc2)c2ccccc2)CC1 | inactive: 98%
22 | CC(C)c1ccc(C(=O)NCC2(N3CCOCC3)CCCCC2)cc1 | inactive: 90%
23 | COc1ccc(NC2CCN(C(=O)OC(C)(C)C)CC2)cc1 | inactive: 94%

Row | SMILES | fluorescence ratio to DMSO
24 | COc1cc(C(=O)NCC2(N3CCCCC3)CCCCC2)ccc1OC(F)F | inactive: 108%
25 | O=C(NCC1(N2CCOCC2)CCCCC1)c1cc(=O)[nH]c2ccccc12 | inactive: 103%
26 | O=C(NCC1(N2CCCCC2)CCCCC1)c1cccc(C(F)(F)F)c1 | inactive: 106%
27 | O=C(NCC1(N2CCCCC2)CCCCC1)c1cccc([N+](=O)[O-])c1 | inactive: 94%
28 | CSc1ccc(C(=O)NCC2(N3CCOCC3)CCCCC2)cc1 | inactive: 96%
29 | CCN1CCC(Nc2ccc(Cl)cc2)CC1 | inactive: 99%
30 | N#CC1(Nc2ccccc2)CCN(CCc2ccccc2)CC1 | inactive: 10100%
31 | O=c1[nH]c2ccccc2n1C1CCN(C(c2ccccc2OC(F)(F)F)c2nnnn2C2CCCC2)CC1 (stereo unspecified) | inactive: 105%
32 | CC(C)(C)n1nnnc1C(c1ccccc1OC(F)(F)F)N1CCC(n2c(=O)[nH]c3ccccc32)CC1 (stereo unspecified) | inactive: 97%
33 | O=C(NCC1(N2CCCCC2)CCCCC1)c1ccc(OC(F)F)cc1 | inactive: 93%
34 | Cc1ccc(C(=O)NCC2(N(C)C)CCCCC2)o1 | inactive: 105%
35 | CCCOc1ccc(C(=O)NCC2(N(C)C)CCCCC2)cc1OC | inactive: 96%
36 | COc1ccc(C(c2nnnn2C2CCCC2)N2CCC(n3c(=O)[nH]c4ccccc43)CC2)cc1 (stereo unspecified) | inactive: 95%
37 | O=C(NCC1(N2CCCCC2)CCCCC1)c1cncc(Br)c1 | inactive: 88%
38 | CN1CCC(Nc2cccc(F)c2)CC1 | inactive: 102%
39 | CCCCn1nnnc1C(c1ccnc2ccccc12)N1CCC(n2c(=O)[nH]c3ccccc32)CC1 (stereo unspecified) | inactive: 88%
40 | COc1cc(OC)c(C(=O)NCC2(N(C)C)CCCCC2)cc1OC | inactive: 95%
41 | O=C(NCC1(N2CCOCC2)CCCCC1)c1cc(F)c(F)cc1Cl | inactive: 100%
42 | CCC(c1nnnn1C(C)(C)C)N1CCC(n2c(=O)[nH]c3ccccc32)CC1 (stereo unspecified) | inactive: 116%
43 | COc1ccc(CN(CCCl)CCCl)cc1Cl | inactive: 93%
44 | CN(C)c1cccc(C(=O)NCC2(N3CCCCC3)CCCCC2)c1 | inactive: 99%
45 | CCCCn1nnnc1C(c1ccccc1OC(F)(F)F)N1CCC(n2c(=O)[nH]c3ccccc32)CC1 (stereo unspecified) | inactive: 94%
46 | CC(C)c1ccc(NC2CCN(C(=O)OC(C)(C)C)CC2)cc1 | inactive: 96%
